Data as given in US20220062278A1, “SMALL MOLECULE INHIBITORS OF THE ANDROGEN RECEPTOR ACTIVITY AND/OR EXPRESSION AND USES THEREOF” (Arizona Board of Regents on Behalf of the Univeristy of …, priority 2018, published 2022).

Protein sequences, listed by entry. Tags and fused reporters are not part of them. Residues count along the entry.
UniProt P10275, 669-920 limits assumed: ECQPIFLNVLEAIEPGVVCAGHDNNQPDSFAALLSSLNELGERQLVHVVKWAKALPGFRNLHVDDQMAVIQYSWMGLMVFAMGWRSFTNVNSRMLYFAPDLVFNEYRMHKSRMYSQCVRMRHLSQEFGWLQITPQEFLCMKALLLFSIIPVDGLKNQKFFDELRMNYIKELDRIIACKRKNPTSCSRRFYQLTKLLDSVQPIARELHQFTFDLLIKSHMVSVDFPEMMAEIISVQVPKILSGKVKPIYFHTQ

Biological target: AR (Homo sapiens, UniProt P10275)
Assay: GeneBlazer assay, inhibition against AR activity
Conditions: Table III
Description: Tables II, III and IV show % inhibition against AR activity at 10 μm within a GeneBlazer assay, and IC50 values (nM) in GeneBlazer assay.

CCCCn1nnnc1C(c1cccc(O)c1)N1CCC(n2c(=O)[nH]c3ccccc32)CC1 (stereo not shown)
% Inhibition against AR at 10 uM- GeneBlazer Assay: 83.9%

Only a part of the results on these compounds is given; other tests are left out.
